Test results published in article PMC2580030 (PLoS ONE, 2008).

Molecular target: T1, HLA-DR1 (Homo sapiens, UniProt P01903+P01911, A100R/D57E/F55L/F60I/F76Y/I96L/L162R/M171V/P40L/Q125E/R42F/V115G/Y59C)
T1 construct: made in house; host or cells: stably transfected Drosophila S2 insect cell lines (DR1 and DM separately)
Assay type: binding
Settings: pH 5

GPKYVKQNTLKLAT [HA, residues 306–318 of the hemagglutinin protein from influenza A virus (H3 subtype) with N-terminal Gly]
t1/2 of DR1/peptide complex (dissociation of prebound peptide): 7.4623 ± 1.26 h
